Antibody variant affinities, Ab-14 light chain, assay B

Values reported by Li et al. 2023, doi:10.1038/s41467-023-39022-2 (FLAb copy).

All variants were tested on one target, the spike HR2 peptide PDVDLGDISGINAS (SARS-CoV-2).

Each scFv is VH, three GGGGS repeats, VL, as in the parent Ab-14, and differs from it in the CDRs of the light chain only.
VH: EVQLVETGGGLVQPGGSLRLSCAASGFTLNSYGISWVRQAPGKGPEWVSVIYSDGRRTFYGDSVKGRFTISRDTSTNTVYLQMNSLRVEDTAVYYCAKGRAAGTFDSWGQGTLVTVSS
VL: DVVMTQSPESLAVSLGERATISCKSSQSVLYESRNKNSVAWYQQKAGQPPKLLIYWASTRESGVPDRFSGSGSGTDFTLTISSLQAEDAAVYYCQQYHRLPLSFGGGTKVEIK

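The variants were designed computationally from a first round of random CDR variants and then made and measured. Their group label is 14L_En_Gen (En: ensemble of fine-tuned language models; Gen: genetic algorithm). The assay is AlphaSeq: two haploid yeast populations carry antibody and antigen on their surface. Pairs that bind mate more often; barcode pairs of the diploids are counted by sequencing. Read counts were normalised to the haploid input and turned into Kd by a linear fit to BCL2-family pairs of known affinity, for each replicate. Mating was done six times.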

Variants are written as CDR1, CDR2 and CDR3 of the light chain (limits as in the source). Parent: KSSQSVLYESRNKNSVA, WASTRES, QQYHRLPLS.
Numbers give log10(Kd / nM), so 0 is 1 nM and 3 is 1 µM. Smaller is tighter.
"n.d." marks a missing value. The strain was present, yet no cells mated with the target were sequenced in that replicate, which points to weak or no binding.
A sequence measured in both rounds can read differently, since the two assays cover different ranges.
The authors averaged sequences with at least three values out of six and counted those with two or fewer as poor binders.
Nonspecific signal, from three strains lacking the peptide, appeared in 4% of pairings of all light chain designs, centred on 2.64 (5% of these signals below 1.59); values are not corrected for it. For each scFv, signals with the empty controls are counted beside the result, with their mean in brackets.

CDR-L1 | CDR-L2 | CDR-L3 | log10 Kd (nM) by replicate | empty controls
KLTMITGLEKVSTNNVA | EMETREE | QQYNRLPLS | 0.46 / 0.24 / 0.51 / 0.21 / 0.54 / 0.52 | 0/18
KIGATLNTLYEKKNNVA | DLVLREN | QQYFRLPLS | 0.57 / 0.98 / 0.74 / 0.28 / 0.14 / 0.81 | 0/18
MVNNIMDHLSKQTNNVA | ETVTREE | QQYDRLPLS | 0.30 / 0.75 / 0.45 / 0.64 / 0.56 / 0.93 | 0/18
MISQLYNMGSFAINSVA | QASERSE | QQYDRLPLM | 0.56 / 2.04 / 1.44 / 1.35 / 0.83 / 1.12 | 1/18 (2.20)
QIYQAMHTLSQKKNNVA | DVNERGS | QQYFRLPLS | 0.48 / 0.69 / 0.35 / 0.19 / 0.58 / 0.45 | 0/18
KIGMTLNQMYEKANNVA | DLVEREN | QQYHRLPLS | 1.99 / 0.88 / 1.13 / 1.03 / 1.17 / 0.96 | 0/18
TISQITSLFSQTINNVA | EVSTREN | QQYDRLPLS | 0.94 / 1.03 / 0.82 / 0.72 / 0.94 / 1.27 | 1/18 (2.51)
HITMGMYVKGRHHSSIA | QAETRAM | QQYDRLPLI | 1.47 / 1.40 / 2.35 / 1.18 / 2.34 / 1.28 | 0/18
TISQMTTLFSQTINNVA | EVSTREQ | QQYDRLPLI | 0.83 / 0.79 / 0.69 / 0.90 / 0.60 / 1.03 | 0/18
TLYGLSMSMSKEKNNVA | EMTTREK | QQYDRLPLI | 0.75 / 0.56 / 0.47 / 0.74 / 0.37 / 0.55 | 2/18 (2.17)
MISQLWNMGTFAINSVA | QASIRNM | QQYDRLPLA | 1.40 / 1.34 / n.d. / n.d. / 2.73 / 1.04 | 1/18 (1.06)
KISQTQEMELKNRNSVA | ELVTRMS | QQYNRLPLS | 0.78 / 0.86 / 0.63 / 0.39 / 0.44 / 0.87 | 0/18
IVSQLMLWGMHVKNSIA | EAVTRLN | QQYDRLPLI | n.d. / n.d. / n.d. / n.d. / n.d. / n.d. | 0/18
MLSQMTGLGMKAKNSVA | QANMRFD | QQYHRLPLM | 0.89 / 0.46 / 0.97 / 0.52 / 0.79 / 0.67 | 1/18 (2.48)
IVSQLMLWGMHHKNSIA | EAQTRLN | QQYDRLPLF | n.d. / n.d. / n.d. / n.d. / n.d. / n.d. | 1/18 (1.30)
TIGQTLMTGVRNRSNVA | EVSQRLN | QQYDRLPLF | 1.42 / 1.01 / 1.04 / 1.05 / 0.92 / 1.66 | 3/18 (2.47)
KLTMITGLEKVQTNNVA | EMETREK | QQYNRLPLS | 1.67 / 1.22 / n.d. / 1.73 / 1.74 / 1.51 | 0/18
MMSSLMGYESRHINNVA | QTTTREE | QQYDRLPLM | 0.59 / 0.70 / -0.44 / 0.28 / 1.34 / 0.67 | 0/18
IVSQLMLWGLHAKNSIA | EAVTRTN | QQYDRLPLF | n.d. / n.d. / n.d. / 1.44 / 1.28 / 2.33 | 0/18
TISQMTSLFQQSINNVA | EVTTREP | QQYDRLPLA | n.d. / n.d. / n.d. / n.d. / n.d. / n.d. | 0/18
MLSMVADYASVSKNSVA | EMATREN | QQYDRLPLS | 1.08 / 1.65 / 1.75 / 0.82 / 1.83 / 2.14 | 0/18
MISQLYNMGTFAINSVA | QATLRNE | QQYDRLPLI | 1.20 / 0.76 / n.d. / n.d. / 1.01 / 1.01 | 0/18
MVTQMAMSGMTNKRSVA | NAEMREH | QQYHRLPLI | 1.48 / 0.37 / 0.34 / 0.17 / 0.75 / 0.53 | 1/18 (1.55)
QIYQAMHTLSQMKDNVA | DVNERGQ | QQYFRLPLS | 0.44 / 0.48 / 0.23 / 0.43 / 0.04 / 0.36 | 1/18 (2.10)
KLSMITGHMSMSKNNVA | EMETREN | QQYERLPLS | 0.53 / 0.58 / 0.65 / 0.58 / 0.63 / 0.88 | 1/18 (2.34)
MISQLYNMGSFAINSVA | QASQRCE | QQYDRLPLI | 0.91 / 1.17 / 0.94 / 1.04 / 1.30 / 1.07 | 1/18 (2.10)
TISQMMQLFSQTINNVA | EVSTRLN | QQYDRLPLM | 1.39 / 1.76 / 1.30 / 1.23 / 1.09 / 1.09 | 1/18 (2.66)
TISQMTSLFSQTINNVA | EVSMREP | QQYDRLPLI | 1.20 / 1.08 / 1.24 / 0.94 / 0.83 / 0.87 | 1/18 (1.49)
HMSMLTLQGMRMRNSVA | QMTTREN | QQYDHLPLA | 0.60 / 0.73 / 0.79 / 0.81 / 0.98 / 0.98 | 1/18 (2.19)
TISQLMNMGSFAISSVA | QASIRNS | QQYDRLPLM | 0.97 / 1.13 / 1.26 / 1.11 / 1.07 / 0.39 | 2/18 (1.61)
TISQMTSLFSQSINNVA | EVSTREE | QQYDRLPLS | 1.01 / 0.54 / 1.09 / 0.65 / 1.03 / 0.77 | 0/18
HMSMLTLGGMRQRNSVA | QMTTREN | QQYDHLPLS | 1.40 / 0.65 / 0.78 / -0.39 / 1.05 / 1.80 | 1/18 (1.61)
MMSQVTGLGTRHRNNVA | QTSTREE | QQYDRLPLV | 0.57 / 0.31 / 0.43 / 0.26 / 0.35 / 0.35 | 0/18
HMSMLTLSGMRHTNSVA | QMTTRVN | QQYDRLPLV | 1.37 / 1.55 / 0.40 / 1.24 / 0.94 / 1.22 | 0/18
TISQLMNMGQFAINSVA | QASIRNA | QQYDRLPLM | 1.29 / 0.72 / 1.24 / 0.70 / 0.86 / 0.84 | 1/18 (2.88)
MLSQMWGLGQKVKNSVA | QASTRFN | QQYERLPLI | n.d. / n.d. / n.d. / n.d. / 2.51 / n.d. | 0/18
HVSMLTLQGMRHTNSVA | QMTTRVN | QQYDRLPLT | 1.63 / 1.24 / 1.56 / 1.36 / 1.68 / 1.54 | 0/18
MVSQLMLWGLHAKYSIA | EAVTRLN | QQYDRLPLI | n.d. / n.d. / n.d. / n.d. / n.d. / n.d. | 0/18
MLSQMWGVGSKAKNSVA | QANMRFN | QQYDRLPLI | 0.86 / 0.77 / 0.74 / 0.78 / 0.99 / 1.02 | 2/18 (2.93)
MISQMYNMGQFAINSVA | QATERNE | QQYDRLPLI | 0.73 / n.d. / n.d. / 1.98 / n.d. / n.d. | 0/18
MISQLWNMGQFAINSVA | QASERSE | QQYDRLPLI | n.d. / n.d. / 1.41 / 2.14 / n.d. / 2.22 | 0/18
TISQVMNTLTRQGNNVA | DLQNREN | QQYFRLPLS | 0.69 / 0.70 / 0.41 / 0.58 / 0.49 / 0.87 | 2/18 (3.34)
KIGMTLNTLLHQKNNVA | DLVERED | QQYFRLPLS | 0.35 / 0.10 / 0.08 / 0.04 / 0.16 / 0.66 | 1/18 (3.84)
MLGDVAMGLTRKEDSVA | DNSTRED | QQYDRLPLS | n.d. / 1.90 / 1.83 / n.d. / n.d. / n.d. | 0/18
TLYGLTNSMSKNKDNVA | EMTTREA | QQYDRLPLV | -0.63 / -0.26 / -0.96 / -0.31 / 0.21 / -0.27 | 0/18
SLGLVTMLEYAERNNVA | NNSTRED | QQYDRLPLS | 1.53 / 1.20 / 1.27 / 1.11 / 1.25 / 0.93 | 1/18 (1.79)
KISAVMENQLKNRNSVA | ELVTRLN | QQYNRLPLS | 0.89 / 0.78 / 1.27 / 0.61 / 0.97 / 1.62 | 0/18
KIGMTLNQLMHQKQNVA | DLVEREN | QQYHRLPLS | 0.24 / 0.05 / 0.21 / -0.24 / -0.27 / 0.03 | 0/18
HITMGMYVAGHHHSSIA | QAETREK | QQYDRLPLS | 1.45 / 1.25 / 1.47 / 1.77 / 1.42 / 1.84 | 3/18 (2.76)
HMSMLTLGGVRHKNSVA | QMTTREN | QQYDHLPLS | 1.04 / 1.64 / n.d. / 1.61 / 1.97 / 1.69 | 0/18

Picked from the list: the 3 lowest averages where every replicate gave a value.

| CDR-L1 | CDR-L2 | CDR-L3 | log10 Kd (nM) by replicate | empty controls |
|---|---|---|---|---|
| TLYGLTNSMSKNKDNVA | EMTTREA | QQYDRLPLV | -0.63 / -0.26 / -0.96 / -0.31 / 0.21 / -0.27 | 0/18 |
| KIGMTLNQLMHQKQNVA | DLVEREN | QQYHRLPLS | 0.24 / 0.05 / 0.21 / -0.24 / -0.27 / 0.03 | 0/18 |
| KIGMTLNTLLHQKNNVA | DLVERED | QQYFRLPLS | 0.35 / 0.10 / 0.08 / 0.04 / 0.16 / 0.66 | 1/18 (3.84) |